{"source": "patent US20240402608A1", "about": "“METHOD FOR NON-INVASIVE PRODUCTION OF DEFINED STRUCTURES INSIDE COMPARTMENTS AND COMPARTMENT” (MAX-PLANCK-GESELLSCHAFT ZUR FÖRDERUNG DER WISSENSCHAFTEN …, priority 2021, published 2024)", "details": "not told"}
{"substance": "poly(ethylene glycol) diacrylate 575 [PEGDA]", "values": [{"measurement": "membrane permeability", "result": "0.3875 ± 0.133", "unit": "×10⁻⁶ cm/s"}]}
